Literature values as cited in patent publication US20040167132A1, “Methods of treating conditions associted with an Edg-2 receptor” (priority 2003, published 2004).

Molecular target: Adrenergic α2

In the case of `COC(=O)[C@H]1[C@H]2C[C@H]3c4[nH]c5ccccc5c4CCN3C[C@H]2CC[C@@H]1O` [^3H Rauwolscine, Rauwolscine], the Kd is listed as 7.8 nM.
